Test results from patent US20260022143A1, “Cyclic Peptide Inhibitors of IL-23” (JANSSEN PHARMACEUTICA NV, priority 2022, published 2026).
pIC50: −log10 of the molar value.

Target: T1, IL-23R (Homo sapiens, UniProt Q5VWK5)
T1 construct: host or cells: HEK293
T1 sequence (Q5VWK5 24-629): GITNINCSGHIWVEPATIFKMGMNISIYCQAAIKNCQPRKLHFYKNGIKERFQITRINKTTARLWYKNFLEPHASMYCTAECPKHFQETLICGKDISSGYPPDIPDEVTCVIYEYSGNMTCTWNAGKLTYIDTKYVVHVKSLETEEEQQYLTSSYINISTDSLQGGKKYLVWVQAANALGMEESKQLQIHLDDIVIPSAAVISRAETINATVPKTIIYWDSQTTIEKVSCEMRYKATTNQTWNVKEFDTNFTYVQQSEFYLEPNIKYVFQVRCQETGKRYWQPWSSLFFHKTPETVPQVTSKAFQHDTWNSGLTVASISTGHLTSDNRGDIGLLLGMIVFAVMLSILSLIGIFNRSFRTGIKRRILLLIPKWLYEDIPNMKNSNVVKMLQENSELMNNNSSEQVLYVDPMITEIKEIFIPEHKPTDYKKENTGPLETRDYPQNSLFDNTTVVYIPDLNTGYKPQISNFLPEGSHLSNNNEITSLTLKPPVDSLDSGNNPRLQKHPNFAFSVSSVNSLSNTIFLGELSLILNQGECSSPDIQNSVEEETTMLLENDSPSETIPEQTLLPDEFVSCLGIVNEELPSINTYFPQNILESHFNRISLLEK
Assay: IL23R Reporter Assay
Format: cell-based
Details: IL23R Reporter Assay (micromolar), HEK293 cells containing IL-23R, IL-12RP1 and STAT-inducible firefly luciferase reporter; 10 ng/mL IL-23 (EC90); 5 h at 37° C.

CC(=O)NCCCC[C@@H]1NC(=O)[C@H](Cc2c[nH]c3c(C)cccc23)NC(=O)[C@H]([C@@H](C)O)NC(=O)[C@H](CC(N)=O)NC(=O)[C@@H](NC(C)=O)C(C)(C)SSC(C)(C)[C@@H](C(=O)N[C@@H](Cc2ccc(OCCN)cc2)C(=O)N[C@@H](Cc2ccc3ccccc3c2)C(=O)N[C@@](C)(CCCCN)C(=O)N[C@@H](CCCCNC(C)=O)C(=O)N[C@@H](CC(N)=O)C(=O)N[C@@H](Cc2ccc(CN)cc2)C(=O)N(C)[C@H](Cc2ccc(O)cc2)C(N)=O)NC1=O [compound 10, MeCO-Pen(3)-N-T-7MeW-K(Ac)-Pen(3)-AEF-2Nal-aMeK-K(Ac)-N-Paf-NMeDTyr-CONH2] gave a pIC50 of 6.64.
